Values quoted from earlier work as cited in paper PMC8415315, “Maternal Serotonin Reuptake Inhibitor Antidepressants Have Acute Effects on Fetal Heart Rate Variability in Late Gestation” (Frontiers in Psychiatry, 2021).

Test system: fetal HR
Conditions: fetal exposure; ref [48]; cited from earlier work

## buprenorphine
  Effect on fetal HR and movement: acute suppressive effect
